Assay results from patent publication EP0195116A2, “Compound having antibacterial and antimycotic activities, preparation thereof and pharmaceutical compositions containing it” (ISTITUTO FARMACO BIOLOGICO RIPARI GERO S.r.l., priority 1985, dated 1986).

Conditions: rat, in vivo, po

Substance: 1-{[2-(2,4-dichlorophenyl)-2-(2,4-dichlorophenyl)methoxy]ethyl}-1-pivaloyloxymethyl-lH-imidazolium chloride [RG 024]
- AUC (area under curve) values, higher than those of miconazole: more than 2.5 times
- presence / detectability of the compound over time: still present in the 8th hour
- values of the main peak, higher than for miconazole: more than 40%
